According to patent US9771331B2, “Methods of identifying neuroprotective compounds for retinal ganglion cells” (THE JOHNS HOPKINS UNIVERSITY, priority 2005, dated 2017):
“Also recorded” adds a separate entry of the source.

What was measured:
[1] = tested on: retinal ganglion cells (RGCs); assay: High-content neurite outgrowth screen of purified retinal ganglion cell cultures (number of outgrowth neurons); format: cell-based, rat; settings: 50 ng/ml, 120 hours
Procedure: Retinal ganglion cell harvest and immunopurification are performed as described above and in the specific Examples, below. A concentration range of neuroprotective compounds to be validated is prepared and added to test wells (e.g., to achieve final concentrations of 3 μM, 10 μM, 15 μM, 30 μM, 60 μM, 90 μM, 120 μM, and 150 μM in 1% DMSO in each well). For a neuroprotective compound obtained from the DIVERSET™ library, for example, 1 mg of desiccated compound can be resuspended in 22.2 μl of DMSO to a final stock solution of 150 mM. […] Afterwards, the solution can be stored in the dark at −20° C. […]
The purified Thy-1 immunoreactive cells are resuspended in growth media (Neurobasal media, B27 supplement, 2 mM glutamine, and 1 U/ml penicillin/streptomycin) and quantified using a hematocytometer. […] One hour after seeding, a post-seeding viability is determined by staining with Hoechst and TOTO3 and calculating the percent of live cells.
(§1) After 120 hours of incubation, cells are stained with 5 μM Hoechst and 10 μM Calcein AM (Molecular Probes). […] Cleavage of the AM group occurs spontaneously when calcein AM is suspended in aqueous solution resulting in a significant increase in background fluorescence over time. […]
Fifteen stereotypic field are autofocus imaged on a Cellomics KINETICSCAN® High Content Scan Reader using epifluorescence and filter sets corresponding to each of the two dyes. […]

[2] = tested on: retinal ganglion cells (RGCs); assay: Overall cell survival of cultured RGCs after 120 hours; format: cell-based, rat; settings: 50 ng/ml
Procedure: The purified Thy-1 immunoreactive cells are resuspended in growth media (Neurobasal media, B27 supplement, 2 mM glutamine, and 1 U/ml penicillin/streptomycin) and quantified using a hematocytometer. Cells are seeded in 100 μl at a density of 4000 cells/well (150/mm^2) in 96 well culture dishes (Falcon) that had been sequentially coated with poly-d-lysine (0.01 mg/ml) and laminin (0.01 μg/μl) (Sigma). Each well either contains 25 μl of media alone or 5× drug or 5×BDNF and forskolin. Final concentrations are: DMSO (1%), drug (20 to 30 μM), BDNF (50 ng/ml) and forskolin (10 μM). Culture dishes are placed in an incubator maintained at 37° C. and 5% CO2. One hour after seeding, a post-seeding viability is determined by staining with Hoechst and TOTO3 and calculating the percent of live cells.
as §1
Images are processed using the Cellomics Extended Neurite Outgrowth software program. […] In addition, each nuclei on the Hoechst channel is matched to a calcein-stained cell and counted as a “valid neuron” (i.e., a live cell). […]

B1: BMP2: bone morphogenetic protein, member of the TGFβ superfamily (protein, UniProt P12643 283-396, looked up)
Bone morphogenetic protein 2: QAKHKQRKRLKSSCKRHPLYVDFSDVGWNDWIVAPPGYHAFYCHGECPFPLADHLNSTNHAIVQTLVNSVNSKIPKACCVPTELSAISMLYLDENEKVVLKNYQDMVVEGCGCR
outgrowth count ratio (mean fold-change from control) ([1]; normalized to medium only): 1.61±0.80 | number of outgrowth neurons ([1]; versus cultures grown in medium only): significantly increased; also recorded: Statistically significant increases | overall cell survival (number of surviving cells) [2]: no effect
